Assay results published in US20240239885A1, “ANTIBODY CONJUGATE COMPRISING ANTI-P-CADHERIN ANTIBODY AND USES THEREOF” (WUXI BIOLOGICS IRELAND LIMITED, priority 2021, published 2024).

The chains behind the UniProt entries cited, without tags or fusion partners. Residues count along the entry.
UniProt P22223, 108-829: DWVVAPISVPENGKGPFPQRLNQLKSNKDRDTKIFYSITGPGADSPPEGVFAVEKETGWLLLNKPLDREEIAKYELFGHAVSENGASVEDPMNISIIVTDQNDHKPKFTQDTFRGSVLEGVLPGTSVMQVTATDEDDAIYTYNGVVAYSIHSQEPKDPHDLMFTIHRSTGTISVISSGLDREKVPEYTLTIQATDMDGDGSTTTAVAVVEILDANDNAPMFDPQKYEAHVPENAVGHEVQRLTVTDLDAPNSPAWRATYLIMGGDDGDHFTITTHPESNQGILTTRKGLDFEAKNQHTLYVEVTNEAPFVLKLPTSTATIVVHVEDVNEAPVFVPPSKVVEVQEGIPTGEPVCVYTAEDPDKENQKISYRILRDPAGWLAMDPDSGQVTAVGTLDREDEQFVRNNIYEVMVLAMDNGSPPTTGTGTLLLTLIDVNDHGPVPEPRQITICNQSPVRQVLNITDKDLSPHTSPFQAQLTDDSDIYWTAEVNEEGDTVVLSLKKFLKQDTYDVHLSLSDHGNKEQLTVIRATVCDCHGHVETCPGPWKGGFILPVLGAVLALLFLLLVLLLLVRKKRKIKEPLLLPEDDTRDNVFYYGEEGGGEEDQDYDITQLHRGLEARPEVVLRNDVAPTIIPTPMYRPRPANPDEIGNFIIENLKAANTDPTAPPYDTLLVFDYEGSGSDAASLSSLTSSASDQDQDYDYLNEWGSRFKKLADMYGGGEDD

Legend:
NCI-H1650 cells = experiment: Cytotoxicity assay of ADC (Cell Titer Glo) on NCI-H1650; conditions: read-out: IC50 (nM), ADC cytotoxicity; NCI-H1650, 5 days
[1] = target: T1, human P-cadherin expressed on cells (human, UniProt P22223 108-829); experiment: FACS on HCT-116 cells after 0 days in human serum at 37 C
T1 construct: whole, on cells; also called CDH3; Cadherin-3
Protocol: The antibody stability in human serum was tested by FACS. Briefly, human serum was freshly isolated by centrifuging the fresh blood twice at 4000 rpm for 10 minutes. […] As a control, antibodies serum mix was frozen immediately without 37° C. incubation. For the FACS analysis, the samples from different time points were free-thawed simultaneously at 4° C. […] The cells were washed twice with 1% BSA/1×PBS (Ca+/Mg+). Alexa647 conjugated Goat anti-human IgG Fc (Jackson, #109-605-098) 1:500 diluted in 1% BSA/1×PBS (Ca+/Mg+) were added to the cells and incubated at 4° C. for 30 minutes. Cells were washed twice in the same buffer and the mean fluorescence (MFI) of stained cells was measured using a FACS Canto II cytometer (BD Biosciences) and analyzed by FlowJo. Wells containing no antibody or secondary antibody only were used to establish background fluorescence. Four-parameter non-linear regression analysis was used to obtain EC50 values for cell binding using GraphPad Prism6 software.

## CC[C@H](C)[C@@H]([C@@H](CC(=O)N1CCC[C@H]1[C@H](OC)[C@@H](C)C(=O)N[C@H](C)[C@@H](O)c1ccccc1)OC)N(C)C(=O)[C@@H](NC(=O)[C@@H](NC)C(C)C)C(C)C [Free drug (MMAE), mono-methyl auristatin E]
NCI-H1650 cells
  IC50: 0.15 nM

B1: W3195-1.53.1-p1-uIgG1L-MMAE (antibody, V domains shown)
VH: QVQLQESGPGLVKPSETLSLTCTVSGGSVISDNYYWTWVRQPPGKGLEFIGYIYYRGSTNYNPSLKNRVIISIDTSRNQFSLDLNSVTAADTAVYYCARDRRTGNSLPFDNWGQGTLVTVSS
VL: SYELTQPPSVSVSPGQTAQITCSGDKLGDKFASWYQQKSGQSPVVVIYQDNKRPSGFPERFSGSNSGNTATLTISGTQAMDEADYYCQAWDSSIVVFGGGTKLTVLG
modifications: MC-vc-PAB-MMAE conjugated to cysteine thiols after TCEP reduction (positions not stated); HIC-DAR 3.86 per antibody
notes: also called W3195-p1-MMAE; WBP3195-p1-ADC
[1]
  EC50: 0.14 nM
